The values that follow are results of earlier work, collected in patent US5814460A, “Method for generating and screening useful peptides” (Diatide, Inc., priority 1995, dated 1998).

Protein sequences, listed by entry. Tags and fused reporters are not part of them. Residues count along the entry.
UniProt P02679, 114-432 limits assumed: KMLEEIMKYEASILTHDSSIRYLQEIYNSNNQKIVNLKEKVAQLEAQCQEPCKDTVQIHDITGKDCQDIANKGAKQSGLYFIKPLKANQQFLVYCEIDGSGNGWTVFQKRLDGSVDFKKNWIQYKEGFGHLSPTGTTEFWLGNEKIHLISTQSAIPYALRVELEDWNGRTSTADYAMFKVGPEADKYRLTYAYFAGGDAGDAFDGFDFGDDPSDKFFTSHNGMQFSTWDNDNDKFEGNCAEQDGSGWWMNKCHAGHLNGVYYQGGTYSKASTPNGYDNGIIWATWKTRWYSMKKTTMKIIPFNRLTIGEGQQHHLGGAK
UniProt P02679, 27-433 limits assumed: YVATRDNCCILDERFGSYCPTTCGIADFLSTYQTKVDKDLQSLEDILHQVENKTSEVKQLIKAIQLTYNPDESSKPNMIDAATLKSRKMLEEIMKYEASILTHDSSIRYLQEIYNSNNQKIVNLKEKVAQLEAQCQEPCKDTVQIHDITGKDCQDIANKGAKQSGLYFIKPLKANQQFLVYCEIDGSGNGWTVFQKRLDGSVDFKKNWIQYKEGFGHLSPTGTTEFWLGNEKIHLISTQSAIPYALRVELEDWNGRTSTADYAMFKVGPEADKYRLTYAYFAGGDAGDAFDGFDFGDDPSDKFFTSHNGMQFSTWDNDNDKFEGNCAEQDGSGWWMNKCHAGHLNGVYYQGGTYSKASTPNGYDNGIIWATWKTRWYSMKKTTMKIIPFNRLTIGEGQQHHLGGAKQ
UniProt P05106, 27-788: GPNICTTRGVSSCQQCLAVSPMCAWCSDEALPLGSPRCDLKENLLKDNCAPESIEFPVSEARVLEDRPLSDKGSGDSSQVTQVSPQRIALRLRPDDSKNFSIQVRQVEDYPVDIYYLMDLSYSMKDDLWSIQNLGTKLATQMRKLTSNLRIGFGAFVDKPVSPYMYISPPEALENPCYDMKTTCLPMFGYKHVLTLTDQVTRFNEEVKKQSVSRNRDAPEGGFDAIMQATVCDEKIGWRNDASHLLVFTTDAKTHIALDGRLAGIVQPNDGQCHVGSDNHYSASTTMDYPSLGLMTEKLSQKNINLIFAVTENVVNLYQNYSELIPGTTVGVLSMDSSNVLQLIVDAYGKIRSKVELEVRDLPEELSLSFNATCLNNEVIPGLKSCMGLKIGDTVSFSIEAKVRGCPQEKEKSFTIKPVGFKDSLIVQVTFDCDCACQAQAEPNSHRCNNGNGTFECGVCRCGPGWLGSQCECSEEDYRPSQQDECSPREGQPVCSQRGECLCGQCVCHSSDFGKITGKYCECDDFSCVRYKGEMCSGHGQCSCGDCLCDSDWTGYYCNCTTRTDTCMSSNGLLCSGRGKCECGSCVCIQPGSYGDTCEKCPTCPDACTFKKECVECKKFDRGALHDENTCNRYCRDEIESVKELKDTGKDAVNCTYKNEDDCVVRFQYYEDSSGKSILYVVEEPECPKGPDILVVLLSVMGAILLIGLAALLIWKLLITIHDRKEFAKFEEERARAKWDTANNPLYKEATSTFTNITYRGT
UniProt P08514, 32-887 limits assumed: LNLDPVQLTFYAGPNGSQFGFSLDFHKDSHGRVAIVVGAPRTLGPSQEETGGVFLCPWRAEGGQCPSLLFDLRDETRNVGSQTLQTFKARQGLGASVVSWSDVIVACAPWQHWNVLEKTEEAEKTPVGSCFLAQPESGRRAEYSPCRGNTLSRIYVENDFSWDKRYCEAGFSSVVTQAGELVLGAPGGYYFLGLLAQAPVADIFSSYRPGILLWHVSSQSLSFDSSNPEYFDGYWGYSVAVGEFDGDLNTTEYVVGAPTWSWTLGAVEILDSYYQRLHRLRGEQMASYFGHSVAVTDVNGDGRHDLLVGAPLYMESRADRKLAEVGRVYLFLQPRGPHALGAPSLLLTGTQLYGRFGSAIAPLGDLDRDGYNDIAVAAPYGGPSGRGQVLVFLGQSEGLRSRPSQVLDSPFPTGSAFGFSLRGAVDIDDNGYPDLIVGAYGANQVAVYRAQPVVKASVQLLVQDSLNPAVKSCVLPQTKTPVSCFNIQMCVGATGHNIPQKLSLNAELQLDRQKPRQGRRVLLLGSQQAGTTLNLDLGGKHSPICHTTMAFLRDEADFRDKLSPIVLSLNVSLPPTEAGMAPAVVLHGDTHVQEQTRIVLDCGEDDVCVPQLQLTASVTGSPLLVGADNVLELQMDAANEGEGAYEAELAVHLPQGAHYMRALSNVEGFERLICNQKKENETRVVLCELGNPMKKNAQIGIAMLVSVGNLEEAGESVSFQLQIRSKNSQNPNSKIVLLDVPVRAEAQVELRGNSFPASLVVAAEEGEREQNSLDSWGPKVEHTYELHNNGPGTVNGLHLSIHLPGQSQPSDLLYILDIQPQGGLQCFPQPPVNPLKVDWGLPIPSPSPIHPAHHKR
UniProt P08514, 891-1039 partner limits assumed: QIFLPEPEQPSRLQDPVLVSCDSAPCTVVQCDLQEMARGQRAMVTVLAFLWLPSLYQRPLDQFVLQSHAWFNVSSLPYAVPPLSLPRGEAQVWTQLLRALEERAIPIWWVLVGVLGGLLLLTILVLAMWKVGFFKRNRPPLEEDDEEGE

In data set [1] the target is fragment D from fibrinogen (Homo sapiens, UniProt P02679). Conditions: read-out: affinity (KGPRP) for fragment D.
The target in data set [2] is human fibrinogen (Homo sapiens, UniProt P02679). Conditions: read-out: affinities for human fibrinogen.
The target in data set [3] is fibrinogen receptor (GpIIb IIIa) (Homo sapiens, UniProt P05106+P08514). Particulars: Table 6, target GpIIb IIa.

Consider GPRP, for which the results for the Kd in data set [1] and in data set [2] were 20 µM and 25 µM, respectively.
On to RGDF, for which the Kd in data set [3] is 10 µM.
